Where a name gives a salt, the structure may show the parent alone. Marks after values point to notes of the source that are not given here.
conditions: 1 mg/kg oral (value marked *), water load 30 ml/kg 1 h after dosing, urine volume 1 h after water loading, vs vehicle control

| Structure (SMILES) | Inhibition of urination (%) |
| --- | --- |
| CSC[C@H](N)[C@](O)(Cc1cc(O[C@H]2CC[C@H](C)CC2)ccn1)C(=O)O [Example 103, (2R,3R)-3-amino-2-hydroxy-2-({4-[(trans-4-methylcyclohexyl)oxy]pyridin-2-yl}methyl)-4-(methylsulfanyl)butanoic acid] | 92* % |

same assay, conditions: 3 mg/kg oral, water load 30 ml/kg 1 h after dosing, urine volume 1 h after water loading, vs vehicle control

| Structure (SMILES) | Inhibition of urination (%) |
| --- | --- |
| CC(C)C[C@H](N)[C@](O)(Cc1cc(O[C@H]2CC[C@H](C)CC2)ccn1)C(=O)O (relative stereo) [Example 6, (2R,3S)-3-amino-2-hydroxy-5-methyl-2-({4-[(trans-4-methylcyclohexyl)oxy]pyridin-2-yl}methyl)hexanoic acid dihydrochloride] | 96% |
| CC(C)C[C@H](N)[C@](O)(Cc1cc(OCCC2CC2)ccn1)C(=O)O [Example 1, (2R,3S)-3-amino-2-{[4-(2-cyclopropylethoxy)pyridin-2-yl]methyl}-2-hydroxy-5-methylhexanoic acid] | 88% |
| CC(C)C[C@H](N)[C@](O)(Cc1cc(OC2CCCCC2)ccn1)C(=O)O.Cl.Cl [Example 3, (2R,3S)-3-amino-2-{[4-(cyclohexyloxy)pyridin-2-yl]methyl}-2-hydroxy-5-methylhexanoic acid dihydrochloride] | 59% |
| CC(C)C[C@H](N)[C@](O)(Cc1cc(OC2CCC3(CC2)CC3)ccn1)C(=O)O [Example 4, (2R,3S)-3-amino-2-hydroxy-5-methyl-2-{[4-(spiro[2.5]octa-6-yloxy)pyridin-2-yl]methyl}hexanoic acid] | 93% |
| C[C@H]1CC[C@H](Oc2ccnc(C[C@](O)(C(=O)O)[C@@H](N)CSCC3CC3)c2)CC1 [Example 5, (2R,3R)-3-amino-4-[(cyclopropylmethyl)sulfanyl]-2-hydroxy-2-({4-[(trans-4-methylcyclohexyl)oxy]pyridin-2-yl}methyl)butanoic acid] | 90% |
| N[C@@H](CCC1CCC1)[C@](O)(Cc1cc(OCCC2CC2)ccn1)C(=O)O [Example 9, (2R,3S)-3-amino-5-cyclobutyl-2-{[4-(2-cyclopropylethoxy)pyridin-2-yl]methyl}-2-hydroxypentanoic acid] | 82% |
| CCCCSc1ccnc(C[C@](O)(C(=O)O)[C@@H](N)CC(C)C)c1 [Example 18, (2R,3S)-3-amino-2-{[4-(butylsulphanyl)pyridin-2-yl]methyl}-2-hydroxy-5-methylhexanoic acid] | 52% |
| CC(C)C[C@H](N)[C@](O)(Cc1nccc2oc(CCC3CC3)cc12)C(=O)O [Example 20, (2R,3S)-3-amino-2-{[2-(2-cyclopropylethyl)furo[3,2-c]pyridin-4-yl]methyl}-2-hydroxy-5-methylhexanoic acid] | 94% |
| CC(C)C[C@H](N)[C@](O)(Cc1cc(OCCC2(C)CC2)ccn1)C(=O)O [Example 28] | 92% |
| CC(C)C[C@H](N)[C@](O)(Cc1cc(OCCCC2CC2)ccn1)C(=O)O [Example 29] | 93% |
| CC(C)C[C@H](N)[C@](O)(Cc1cc(OC2CCCCCC2)ccn1)C(=O)O [Example 41] | 55% |
| CCCC[C@@H](C)Oc1ccnc(C[C@](O)(C(=O)O)[C@@H](N)CC(C)C)c1 [Example 55] | 91% |
| CC(C)C[C@H](N)[C@](O)(Cc1nccc2c1CC(CCC1CC1)O2)C(=O)O (some centres unmarked) [Example 83] | 80% |
| C[C@H]1CC[C@H](Oc2ccnc(C[C@](O)(C(=O)O)[C@@H](N)COc3ccc(F)cn3)c2)CC1 [Example 84] | 64% |
| C=CCCOC[C@H](N)[C@](O)(Cc1cc(O[C@H]2CC[C@H](C)CC2)ccn1)C(=O)O [Example 88] | 89% |
| CC(C)C[C@H](N)[C@](O)(Cc1cc(O[C@H](C)Cc2ccccc2)ccn1)C(=O)O [Example 92] | 61% |
| CCSC[C@H](N)[C@](O)(Cc1cc(O[C@H]2CC[C@H](C)CC2)ccn1)C(=O)O [Example 105, (2R,3R)-3-amino-4-(ethylsulfanyl)-2-hydroxy-2-({4-[(trans-4-methylcyclohexyl)oxy]pyridin-2-yl}methyl)butanoic acid] | 98% |
| N[C@@H](COCCC1CC1)[C@](O)(Cc1cc(OCCC2CC2)ccn1)C(=O)O [Example 110] | 57% |
| CC(C)C[C@H](N)[C@](O)(Cc1cc(SCCC2CC2)ccn1)C(=O)O [Example 111] | 57% |
| CC(C)C[C@H](N)[C@](O)(Cc1cc(S[C@H]2CC[C@H](C)CC2)ccn1)C(=O)O [Example 119] | 97% |
| N[C@@H](CSCCC1CC1)[C@](O)(Cc1cc(OCCCC2CC2)ccn1)C(=O)O [Example 139] | 90% |
| CCSC[C@H](N)[C@](O)(Cc1cc(OCCCC2CC2)ccn1)C(=O)O [Example 143] | 100% |

Reference: patent US10059720B2, “Pyridine derivative” (Astellas Pharma Inc., priority 2014, dated 2018)
